Protein sequences, listed by entry. Tags and fused reporters are not part of them. Residues count along the entry.
UniProt P02768, 25-609: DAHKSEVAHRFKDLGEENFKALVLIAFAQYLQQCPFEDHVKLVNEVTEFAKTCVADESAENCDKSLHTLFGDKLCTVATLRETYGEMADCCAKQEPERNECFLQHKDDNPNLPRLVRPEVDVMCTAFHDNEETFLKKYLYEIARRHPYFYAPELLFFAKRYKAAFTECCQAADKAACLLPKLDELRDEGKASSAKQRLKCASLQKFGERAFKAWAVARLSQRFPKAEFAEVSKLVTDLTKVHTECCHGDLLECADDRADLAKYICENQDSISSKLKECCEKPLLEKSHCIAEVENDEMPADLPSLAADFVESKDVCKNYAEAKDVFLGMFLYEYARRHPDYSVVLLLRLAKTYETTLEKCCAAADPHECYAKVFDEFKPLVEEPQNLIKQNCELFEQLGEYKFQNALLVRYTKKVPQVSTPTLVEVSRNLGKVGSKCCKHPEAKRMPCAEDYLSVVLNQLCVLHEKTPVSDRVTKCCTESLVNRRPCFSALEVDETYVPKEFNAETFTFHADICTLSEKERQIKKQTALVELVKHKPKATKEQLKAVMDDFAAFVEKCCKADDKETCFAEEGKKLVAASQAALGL

According to patent publication US7175991B2, “Method of measuring binding site on plasma protein of plasma protein-binding drug and method of measuring plasma protein mutation” (Nihon Medi-Physics Co., Ltd., priority 2002, dated 2007):

Tests used:
AGP Site A and B [1] = conditions: pH 7.4
HSA Site II = HSA Site II (Homo sapiens, UniProt P02768); conditions: 400 μM, pH 7.4
AGP Site A and B [2] = conditions: human, 400 μM, pH 7.4

- Difference of free drug ratio of control, human serum 2 compared with normal male serum (AGP Site A and B [1]): ≥ 2.3 times
- Free drug ratio (%) of ^14C-DZP (HSA Site II): 2.76%
- Change ratio (time) of ^3H-PPL free drug ratio (AGP Site A and B [2]): 2.90 time
- Free drug ratio (%) of ^3H-PPL (AGP Site A and B [2]): 34.28%
SMILES: CC(C)NCC(O)COc1cccc2ccccc12 (stereo not shown) [PPL, propranolol]
